{"sequences": {"note": "Sequences of proteins named here, by UniProt entry; tags and fusion partners are left off.", "UniProt P17931, whole entry": "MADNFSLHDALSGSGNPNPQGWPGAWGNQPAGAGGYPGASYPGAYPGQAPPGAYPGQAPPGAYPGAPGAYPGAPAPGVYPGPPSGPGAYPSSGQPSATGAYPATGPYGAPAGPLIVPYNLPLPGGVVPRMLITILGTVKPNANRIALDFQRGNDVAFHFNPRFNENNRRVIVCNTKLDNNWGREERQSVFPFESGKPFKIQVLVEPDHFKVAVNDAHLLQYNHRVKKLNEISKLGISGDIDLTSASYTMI"}, "source": "patent US12275720B2", "about": "“Small molecule inhibitors of galectin-3” (BRISTOL MYERS SQUIBB, priority 2020, dated 2025)", "target": "His-tagged recombinant human Gal-3 (hGal-3) (Homo sapiens, UniProt P17931)", "experiment": "Gal 3 HTRF Assay", "settings": "read-out: hGal3 IC50 (HTRF); HTRF assay (default), 15 nM hGal-3, 15 nM B-ASF", "data": [{"smiles": "CO[C@@H]1[C@@H](n2cc(-c3cccc(F)c3)nn2)[C@@H](O)[C@@H](CO)O[C@H]1C(=O)N(C)C1COCC(n2ncc3cc(F)cnc32)C1O", "note": "(single isomer, unassigned)", "values": [{"measurement": "IC50", "value": 40, "unit": "nM"}]}]}
